The values that follow are results of earlier work, collected in patent publication US20070043105A1, “Preventive for cerebal stroke recurrence” (ASTELLAS PHARMA INC., priority 2003, published 2007).

This data set deals with SHR-SP rats. The note with it: administration before attack; cited from earlier work.

Take `COCc1c(C(C)C)nc(C(C)C)c(/C=C/[C@@H](O)C[C@@H](O)CC(=O)O)c1-c1ccc(F)cc1` [serivastatin]: the brain infarction volume entry was “effective for reducing a brain infarction volume”.
